{"source": "patent US20260126455A1", "about": "“Methods and Dosing Regimens for Preventing or Delaying Onset of Alzheimer's Disease and Other Forms of Dementia and Mild Cognitive Impairment” (priority 2020, published 2026)", "origin": "cited, not measured here", "tested_on": "amyloid", "conditions": "cited from earlier work; for Clinical trial efficacy end points: Alzheimer's disease subjects, Solanezumab: Phase 3, mild Alzheimer's disease"}
{"substance": "Bapineuzumab: anti-amyloid antibody", "values": [{"measurement": "Clinical trial efficacy end points", "value": "failed to achieve the desired end points"}]}
{"substance": "Aducanumab: another anti-amyloid antibody, designed by Biogen", "values": [{"measurement": "Clinical trial efficacy end points", "value": "efficacy endpoints were also not met"}, {"measurement": "Removal of beta-amyloid plaques", "setting": "people with Alzheimer's", "value": "appeared to be able to remove those plaques"}]}
